From patent US6344324B2, “Quantification of cellular injury using expression of a fluorescent protein under the control of the GADD153 promoter” (Research Development Foundation, priority 2000, dated 2002)

Assays:
[1] = tested on: T10b45 cells; experiment: Clonogenic (colony-forming) assay; type: cell-based, human; conditions: 4 hour exposure
[2] = tested on: GADD153 promoter activity in T10b45 cells; experiment: GADD153 promoter-driven EGFP expression in T10b45 cells by flow cytometry
[3] = tested on: T10b45 cells; experiment: Cell cycle phase distribution (G2/M arrest) by flow cytometry
[4] = following 4 hour exposure to 20 μM

N-methl-N′-nitro-N-nitrosoguanidine
IC50 [1]: 1.36 µM | Induction Ratio ([2]; 20 μM, 4 h exposure, GFP 4 days after treatment, relative to untreated control): 31 | activation of EGFP expression (in words) ([2]; T10b45 cells, 4 days after the insult, conditions of maximal activation (Table 1)): strongly activated | day GADD153-EGFP expression peaked [2, 4]: 6 days | day GADD153-EGFP expression was detectable [2, 4]: ≤ 2 days | cells falling within the gated region ([2]; four days after 20 μM for 4 hour, untreated 0.12%): 3.74% | fluorescence of T10b45 cells, mean channel value ([2]; four days after 20 μM for 4 hour, untreated 4.11): 13.28 | treated cells in G2 or M phase (maximal G2/M arrest) ([3]; 2 days after 4 hour exposure to 20 μM, untreated control 23.4%): 63.0% | perturbation of cell cycle phase distribution persisted ([3]; after 4 hour exposure to 20 μM): 6 days | perturbation of cell cycle phase distribution resolved ([3]; after 4 hour exposure to 20 μM): ≤ 8 days
